Assay results published in BindingDB's records for PubMed 8301582 (Neuroscience Research Centre, 1994).

Chains of the proteins cited; added tags and fusions are not shown. A line that says so, or that is headed by a name, gives the form on record, which may keep a tag or linker.
UniProt P35462, as listed by the source: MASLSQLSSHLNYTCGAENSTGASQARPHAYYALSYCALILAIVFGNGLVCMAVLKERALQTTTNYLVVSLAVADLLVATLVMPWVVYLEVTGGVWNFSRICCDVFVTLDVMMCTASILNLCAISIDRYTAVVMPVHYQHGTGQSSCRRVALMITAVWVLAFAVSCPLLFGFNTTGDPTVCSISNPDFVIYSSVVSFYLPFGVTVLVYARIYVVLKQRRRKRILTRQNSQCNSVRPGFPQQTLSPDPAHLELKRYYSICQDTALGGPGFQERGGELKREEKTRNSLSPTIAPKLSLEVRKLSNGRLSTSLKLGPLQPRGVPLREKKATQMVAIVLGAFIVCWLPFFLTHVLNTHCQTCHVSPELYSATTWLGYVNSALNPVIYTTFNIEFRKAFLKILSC

Molecular target: D(3) dopamine receptor (Homo sapiens, UniProt P35462)

Work on `CCCN1CCCC(c2cccc(O)c2)C1` (stereo unspecified) [CAS_85976-54-1] yielded a Ki of 340 nM.
